ClpP mod = qHTS Assay for Activators of ClpP | ATP-dependent Clp protease proteolytic subunit (Bacillus subtilis (strain 168)), P80244 | purified B. subtilis ClpP, FRET peptide cleavage, 20 min | Potency, µM (highest dose often 57.5 µM) | 1.9% of 340,000 active; active = well fitted falling curve with a large enough effect; inconclusive = small, poorly fitted or top-dose-only effect; inactive = no such curve, though single readings can be large or run the other way; note: the source files actives as falling curves though it sought activators and does not explain the sign; nearly all actives have a fitted effect of over 65% in size
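FRET quenching reversal measured ClpP activation: 10 microg/mL B. subtilis ClpP at pH 8 with the FRET-FV decapeptide, read at 430 nm after 320 nm excitation. The 20-min minus 0-min signal was scaled between DMSO/no-enzyme wells and ADEP (5.8 microM final).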
A549 tox-1 = A549 cytotoxicity, counter-screen for Nrf2 inhibitors; AID 504648; 0.16% of 390,000 active; Potency, µM (series often up to 46 µM), most hits filed as inhibitors; A549 ARE-Fluc cells, CellTiter-Fluor viability, 18-24 h
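A549 ARE_Fluc cells in 5% FBS OPTI-MEM were exposed to compounds in concentration-response for 18-24 h at 37 deg C. Viability was read by CellTiter-Fluor fluorescence (Ex 405/Em 525) after 30 min, before the luciferase read.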
miR-21 reporter = raises the signal of a miR-21 reporter; AID 2288; 340,000 tested, under 10 active; Potency, µM (doses to about 38.3 µM); HeLa miR-21 FLuc reporter, luciferase, 48 h; active = well fitted rising curve with a large enough effect; inconclusive = small, poorly fitted or top-dose-only effect; inactive = no such curve, though single readings can be large or run the other way;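 note: miR-21 action dims this reporter so a rising signal means less miR-21 action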
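Luminescence from a firefly luciferase reporter carrying a miR-21 binding site downstream, stably expressed under a CMV promoter in HeLa cells that make miR-21 endogenously, reports miRNA modulation after 48 h compound exposure up to approximately 40uM final.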
Nrf2 inh = inhibitors of Nrf2 signaling; A549 ARE-Fluc reporter, luciferase luminescence, 18-24 h; 2.1% of 360,000 active; Potency, µM (highest dose often 46 µM), usual class: inhibitors; note: nearly all actives have a fitted effect of over 60% in size
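Cells were seeded and rested 2 h, then exposed to compounds for 18-24 h. CellTiter-Fluor was read first as a viability measure. BugLite was added 15 min before the final luminescent read of ARE-luciferase activity in A549 cells.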
p53 reactivation = mutant p53 re-activation in reporter cells; H1299 p53-A138V BP100-luciferase reporter, luminescence, 24 h; Potency, µM (top dose mostly 92.2 µM), usual class: activators; 0.063% of 320,000 active; AID 504706; note: nearly all actives have a fitted effect of over 45% in size
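p53-null H1299 cells stably carrying temperature-sensitive p53-A138V and a BP100-luciferase reporter were pinned with compounds (4-point, 1:5 series) and held 24 hrs at 37 deg C. Luminescence was read 10 min after detection reagent.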
Nrf2 activator = activates Nrf2 signaling | AREc32 ARE-luciferase reporter (MCF7-derived line), luminescence, 24 h | Potency, µM (doses to about 46.1 µM), usual class: activators | 0.31% of 410,000 active | AID 624171; note: nearly all actives have a fitted effect of over 65% in size
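AREc32 cells carrying an ARE-driven firefly luciferase, 1000 cells/well in OPTI-MEM with 5% FBS, dosed after overnight attachment and incubated 24 hr at 37 deg C. Steady-Glo luminescence read after 30 min at RT.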
FLuc counter 3 = blocks purified firefly luciferase in Nrf2 counterscreen; purified firefly luciferase, luminescence inhibition; Potency, µM (doses to about 57.5 µM), most hits filed as inhibitors; shares compounds with Nrf2 inh; 4% of 1,400 active; note: nearly all actives have a fitted effect of over 65% in size
A549 tox-2 = A549 cytotoxicity, Nrf2 inhibitor counterscreen; shares compounds with Nrf2 inh; A549 ARE-Fluc cells, cytotoxicity counterscreen; Potency, µM (series often up to 46.1 µM), most hits filed as inhibitors; 2% of 1,400 active;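 note: cells exposed to compounds for 18 to 24 hours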
ARE-Fluc inh = confirmation of Nrf2 inhibitors in A549 ARE reporter cells. shares compounds with Nrf2 inh. A549 ARE-firefly luciferase reporter, luminescence. Potency, µM (highest dose often 46.1 µM), actives largely listed as inhibitors. 74% of 1,400 active. AID 720524; note: nearly all actives have a fitted effect of over 65% in size
A number is an active result; – = inactive; ? = inconclusive; · = not tested or not shown. Most compounds without a hit are left out; they make up all but 3.7% or so of the library. Unless noted, calls come from the whole dose curve; as a rule, active = well fitted curve in the direction sought with a large enough effect; inconclusive = small, poorly fitted or top-dose-only effect, or another doubt; inactive = no such curve, though single readings can be large; an effect the other way counts as inactive or inconclusive.

SMILES	ClpP mod	A549 tox-1	miR-21 reporter	Nrf2 inh	p53 reactivation	Nrf2 activator	FLuc counter 3	A549 tox-2	ARE-Fluc inh
CC12C=CC(=O)C=C1CCC1C3CCC(O)(C(=O)CO)C3(C)CC3OC312 (stereo not given)	·	–	–	–	–	–	·	·	·
CC(=O)Nc1ccc(S(=O)(=O)NCCSCc2ccc(Cl)cc2Cl)cc1	–	–	–	9.2µM	–	–	–	–	10µM
CC(=O)Nc1ccc(S(=O)(=O)NCCNS(=O)(=O)c2ccc(NC(C)=O)cc2)cc1	–	–	–	–	–	–	·	·	·
CN(Cc1ccc(Cl)cc1)C(=O)c1ccc(S(=O)(=O)NCc2ccco2)cc1	–	–	·	9.2µM	–	–	–	–	–
CC1CCCC=CC2CC(OC(=O)CN(C)C)CC2C(O)C=CC(=O)O1 (stereo not given)	–	?	·	0.21µM	·	–	–	?	0.41µM
CC1CCN(C(=O)CSc2nc3c(cnn3-c3ccccc3)c(=O)[nH]2)CC1	–	–	–	5.8µM	–	–	–	–	–
O=C(c1cc(S(=O)(=O)N2CCN(c3ccccc3)CC2)ccc1Cl)N1CCCC(C(F)(F)F)C1 (stereo not given)	–	–	·	4.6µM	–	–	–	–	5.2µM
Cc1ccc(C)c(NC(=O)CSc2nc(=O)n(Cc3ccncc3)c3c2CCC3)c1	–	–	–	·	·	–	·	·	·
CC(=O)c1sc(NC(=O)C2(F)C(F)(F)C(F)(F)C(F)(F)C(F)(F)C2(F)F)nc1C	–	?	?	5.8µM	–	–	?	?	6.5µM
CCCCCCCCNc1ncnc2ccccc12	–	?	–	5.8µM	–	–	–	–	7.3µM
c1ccc(CCNc2ncnc3ccccc23)cc1	–	–	–	?	–	–	·	·	·
COc1ccc(CNC(=O)c2cccc(S(=O)(=O)N3CCCCC3)c2)cc1OC	–	–	·	5.2µM	–	–	–	–	5.8µM
O=C(Cc1n[nH]c(=O)c2ccccc12)Nc1cccc(S(=O)(=O)N2CCCCCC2)c1	–	–	·	9.2µM	–	–	–	–	9.2µM
O=C(Cn1c(NCCO)nc2ccccc21)Nc1cccc(S(=O)(=O)N2CCCC2)c1	–	–	·	?	–	–	·	·	·
O=C(Cn1cnc2ccccc21)Nc1cccc(S(=O)(=O)N2CCCC2)c1	–	–	·	5.8µM	–	–	–	–	9.2µM
COc1ccc(CCNC(=O)c2cccc(S(=O)(=O)N3CCCC3)c2)cc1OC	–	–	·	–	–	–	·	·	·
COc1cc(OC)c(OC)cc1CNC(=O)c1cccc(S(=O)(=O)N2CCc3ccccc3C2)c1	–	–	·	7.3µM	–	–	–	–	5.8µM
Cc1c(-c2ccc(Cl)cc2)c(=O)oc2ccc(OC(=O)N3CCOCC3)cc12	?	–	–	·	·	–	·	·	·
CC(C)C[C@@H](CNCC(=O)[C@H](CC(C)C)NC(=O)c1[nH]cnc1C(=O)N[C@H](CN)CC(C)C)NC(=O)c1nc[nH]c1C(=O)N[C@@H](CC(=O)O)C(=O)O	–	–	·	–	·	–	·	·	·
CCc1ccc(-n2c(=O)c3c4c(sc3n(CC(=O)c3ccc(Br)cc3)c2=O)CCC4)cc1	–	–	–	–	·	–	·	·	·
Cc1cn(CC(=O)NCCc2ccccn2)c(=O)[nH]c1=O	–	–	·	–	·	–	·	·	·
COc1ccc(CC(=O)Nc2cccc(S(=O)(=O)N3CCCC3)c2)cc1OC	–	–	·	4.6µM	–	–	–	–	7.3µM
Cc1cc2oc(=O)cc(CSc3nnc(-c4cccs4)o3)c2cc1C(C)C	–	?	–	8.2µM	–	–	–	–	?
Cc1cc2oc(=O)cc(CSc3nnc(C)n3N)c2cc1C(C)C	–	–	–	·	–	–	·	·	·
COc1ccc(CNC(=O)COCc2cc(-c3cccs3)on2)cc1	–	–	–	–	·	–	·	·	·
SMILES	ClpP mod	A549 tox-1	miR-21 reporter	Nrf2 inh	p53 reactivation	Nrf2 activator	FLuc counter 3	A549 tox-2	ARE-Fluc inh
O=C(NCc1cccc(F)c1)c1cccc(NC(=O)c2nsc3ccccc23)c1	–	–	–	·	·	–	·	·	·
CCOC(=O)c1sc2ccccc2c1OC(=O)c1ccccc1OC	–	–	?	4.6µM	–	–	–	–	?
CCOC(=O)c1ccccc1NC(=O)c1sc2ccccc2c1Cl	–	–	–	?	·	–	·	·	·
CC(C)C[C@H](N)c1cn([C@@H](CCCCN)C(=O)N2CCNCC2)nn1	–	?	–	1µM	–	–	–	–	?
CC(C)CC(N)c1cn([C@@H](CCC(=O)O)C(=O)N2CCNCC2)nn1 (stereo not given in full)	–	–	–	–	–	–	·	·	·
Clc1nc(NCC2CCCO2)c2[nH]cnc2n1 (stereo not given)	–	–	·	–	·	·	·	·	·
Cc1ccc(NC(=O)c2cnc(SCC(=O)N3CCCc4ccccc43)n(C)c2=O)cc1C	?	–	–	·	·	–	·	·	·
c1ccc(-c2c[n+]3c(n2-c2ccccc2)CCC3)cc1	–	–	–	?	–	–	·	·	·
Cc1ccc(-c2c[n+]3c(n2-c2ccccc2)CCC3)cc1	–	–	?	6.5µM	–	–	–	–	13µM
CCOc1ccc(-n2c(-c3ccccc3)c[n+]3c2CCCCC3)cc1	–	–	?	2.1µM	–	–	–	–	5.8µM
CCOC(=O)COc1ccc(CC)cc1C(=O)c1ccn2nc(-c3ccc(F)cc3)cc2n1	–	–	–	–	·	–	·	·	·
CC1CCCCN1CCCNC(=O)Cn1ncc2c3ccccc3n(Cc3ccccc3)c2c1=O (stereo not given)	–	–	–	–	·	–	·	·	·
O=C(Nc1ccc(Br)cc1)c1cccc(S(=O)(=O)Nc2cnc3ccccc3c2)c1	–	?	–	2.9µM	–	–	?	–	18µM
CCOc1ccc(S(=O)(=O)Nc2cnc3ccccc3c2)cc1	·	–	–	4.1µM	–	–	–	–	6.5µM
CCOc1ccc(S(=O)(=O)Nc2nc3ccccc3nc2Cl)cc1	–	–	–	?	–	–	·	·	·
CC(=O)C1(O)CCC2C3CC(C)C4=CC(=O)C=CC4(C)C3(F)C(O)CC21C (stereo not given)	–	–	·	0.033µM	·	–	–	–	0.065µM

Screening results deposited in PubChem by National Center for Advancing Translational Sciences (NCATS).
